Tested on: SKBR3 cells
Experiment: SKBR3 Cell Viability Assay
Settings: read-out: MCL-1 CV SKBR3 EC50, 72 hours, CellTiter Glo

Q: CCC(=O)N[S@]1(=O)=NC(=O)c2ccc3c(c2)N(C[C@@H]2CC[C@H]2[C@@H](OC)CCCCC1)C[C@@]1(CCCc2ccccc21)CO3 was tested. Which EC50 did it give?
A: 10 µM
